One may read the Ki as a measure of affinity in units of concentration, obtained from inhibition or displacement.

Amino acid sequences for entries named in this document (tags omitted).
UniProt P25099, whole entry: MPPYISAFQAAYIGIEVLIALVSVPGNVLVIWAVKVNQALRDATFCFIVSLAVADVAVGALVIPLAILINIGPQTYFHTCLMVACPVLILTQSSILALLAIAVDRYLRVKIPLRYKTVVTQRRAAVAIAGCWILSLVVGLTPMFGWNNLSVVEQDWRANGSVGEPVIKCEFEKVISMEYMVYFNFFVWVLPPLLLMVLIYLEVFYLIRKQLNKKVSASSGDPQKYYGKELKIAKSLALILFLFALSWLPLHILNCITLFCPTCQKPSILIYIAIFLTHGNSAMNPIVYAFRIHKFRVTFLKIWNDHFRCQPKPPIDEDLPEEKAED

Data on two compounds can be found in ChEMBL document CHEMBL1124836 (J Med Chem, 1990).

This assay addresses Adenosine receptor A1 (Rattus norvegicus, UniProt P25099). The assay can be described thus: Adenosine A1 receptor binding was measured in adenosine deaminase (ADA) pretreated rat cortical membranes using [3H]cyclohexyladenosine in the presence of 2-chloroadenosine.

With `Nc1nc(Nc2ccccc2)nc2c1ncn2[C@@H]1O[C@H](CO)[C@@H](O)[C@H]1O`, the Ki came out at 689 nM.

On to `CCNC(=O)[C@H]1O[C@@H](n2cnc3c(N)nc(NCCc4ccc(CCC(=O)O)cc4)nc32)[C@H](O)[C@@H]1O` [CGS-21680], for which the Ki worked out at 1410 nM.
